# Assay results: publication PMC7339037 (Journal of medicinal chemistry, 2017)
# System: salmon sperm DNA
# Details: 25 mM MOPS pH 6.5
row,SMILES,DNA binding activity (displacement of Sybr-green DNA intercalator)
1,"CC1=NN(c2cccc(C(=O)O)c2)C(=O)/C1=C\c1ccc(-c2ccc(Cl)c(C(=O)NCC3CC3)c2)o1 [Compound 34d, (Z)-3-(4-((5-(4-Chloro-3-((cyclopropylmethyl)carbamoyl)phenyl)-furan-2-yl)methylene)-3-methyl-5-oxo-4,5-dihydro-1H-pyrazol-1-yl)benzoic Acid]",no significant DNA binding activity
2,"CC1=NN(c2ccc(C(=O)O)cc2)C(=O)/C1=C\c1ccc(-c2ccc(Cl)c(C(=O)NCc3ccc(F)cc3)c2)o1 [Compound 34i, (Z)-4-(4-((5-(4-Chloro-3-((4-fluorobenzyl)carbamoyl)phenyl)-furan-2-yl)methylene)-3-methyl-5-oxo-4,5-dihydro-1H-pyrazol-1-yl)benzoic Acid]",no significant DNA binding activity
3,"CC1=NN(c2ccc(C(=O)O)cc2)C(=O)/C1=C\c1ccc(-c2ccc(C(=O)NCc3ccc(F)cc3)cc2)o1 [Compound 39c, (Z)-4-(4-((5-(4-((4-Fluorobenzyl)carbamoyl)phenyl)furan-2-yl)-methylene)-3-methyl-5-oxo-4,5-dihydro-1H-pyrazol-1-yl)benzoic Acid]",no significant DNA binding activity
4,"CC1=NN(c2ccc(C(=O)O)cc2)C(=O)/C1=C\c1ccc(-c2ccc(Cl)c(C(=O)NCC3CC3)c2)o1 [Compound 34k, (Z)-4-(4-((5-(4-Chloro-3-((cyclopropylmethyl)carbamoyl)phenyl)-furan-2-yl)methylene)-3-methyl-5-oxo-4,5-dihydro-1H-pyrazol-1-yl)benzoic Acid]",no significant DNA binding activity
5,CC1=NN(c2ccc(Cl)c(C(=O)O)c2)C(=O)/C1=C\c1ccc(-c2ccc(Cl)c(C(=O)OCc3ccccc3)c2)o1 [Compound 22],DNA binding activity above their IC50 value concentrations
6,"CC1=NN(c2cccc(C(=O)O)c2)C(=O)/C1=C\c1ccc(-c2ccc(Cl)c(C(=O)NCc3ccc(F)cc3)c2)o1 [Compound 34a, (Z)-3-(4-((5-(4-Chloro-3-((4-fluorobenzyl)carbamoyl)phenyl)furan-2-yl)methylene)-3-methyl-5-oxo-4,5-dihydro-1H-pyrazol-1-yl)-benzoic Acid]",no significant DNA binding activity
7,CC1=NN(c2ccc(Cl)c(C(=O)O)c2)C(=O)/C1=C\c1ccc(-c2ccc(Cl)c(C(=O)OCc3ccccc3Cl)c2)o1 [Compound 24],DNA binding activity above their IC50 value concentrations
